Test [1] concerns the target Vascular endothelial growth factor receptor 1 (Homo sapiens, UniProt P17948). The test can be described thus: Inhibition of VEGFR1 expressed in human tumor cells.
Test [2] concerns the target Platelet-derived growth factor receptor beta (Homo sapiens, UniProt P09619). The test can be described thus: Inhibition of PDGFRbeta expressed in human tumor cells.

Amino acid sequences for entries named in this document (tags omitted).
UniProt P17948, whole entry: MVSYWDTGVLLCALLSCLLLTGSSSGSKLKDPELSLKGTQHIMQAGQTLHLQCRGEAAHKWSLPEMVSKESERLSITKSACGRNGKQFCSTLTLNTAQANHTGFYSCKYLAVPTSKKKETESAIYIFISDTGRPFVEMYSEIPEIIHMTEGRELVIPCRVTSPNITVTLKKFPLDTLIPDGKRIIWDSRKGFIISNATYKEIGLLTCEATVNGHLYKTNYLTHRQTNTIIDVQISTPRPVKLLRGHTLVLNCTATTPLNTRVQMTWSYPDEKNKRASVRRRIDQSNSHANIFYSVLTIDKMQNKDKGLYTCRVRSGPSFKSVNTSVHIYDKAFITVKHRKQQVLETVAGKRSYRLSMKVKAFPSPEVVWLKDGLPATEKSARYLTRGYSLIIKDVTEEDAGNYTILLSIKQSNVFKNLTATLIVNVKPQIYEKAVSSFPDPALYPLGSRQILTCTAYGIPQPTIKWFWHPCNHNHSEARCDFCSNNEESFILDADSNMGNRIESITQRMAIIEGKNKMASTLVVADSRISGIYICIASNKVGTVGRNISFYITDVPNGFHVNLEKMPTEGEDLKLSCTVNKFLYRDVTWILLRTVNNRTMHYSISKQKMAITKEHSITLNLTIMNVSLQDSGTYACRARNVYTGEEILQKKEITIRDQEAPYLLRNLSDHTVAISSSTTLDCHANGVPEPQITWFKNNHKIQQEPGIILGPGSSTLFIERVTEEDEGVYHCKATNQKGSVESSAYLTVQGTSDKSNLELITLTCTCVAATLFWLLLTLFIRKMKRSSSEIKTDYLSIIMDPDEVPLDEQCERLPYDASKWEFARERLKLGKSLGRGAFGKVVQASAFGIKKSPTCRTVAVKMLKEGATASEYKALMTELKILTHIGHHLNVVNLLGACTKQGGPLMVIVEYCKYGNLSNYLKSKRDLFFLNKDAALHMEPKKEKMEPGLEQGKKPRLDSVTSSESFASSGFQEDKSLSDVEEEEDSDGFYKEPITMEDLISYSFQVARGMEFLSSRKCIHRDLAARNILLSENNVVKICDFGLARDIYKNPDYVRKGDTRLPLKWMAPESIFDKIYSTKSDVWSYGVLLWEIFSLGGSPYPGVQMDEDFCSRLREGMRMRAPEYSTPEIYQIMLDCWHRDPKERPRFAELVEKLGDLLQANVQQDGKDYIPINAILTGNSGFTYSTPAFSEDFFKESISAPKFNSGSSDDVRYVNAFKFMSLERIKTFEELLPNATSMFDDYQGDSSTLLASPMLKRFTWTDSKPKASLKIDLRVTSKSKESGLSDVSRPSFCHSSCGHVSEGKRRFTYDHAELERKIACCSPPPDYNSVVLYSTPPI
UniProt P09619, whole entry: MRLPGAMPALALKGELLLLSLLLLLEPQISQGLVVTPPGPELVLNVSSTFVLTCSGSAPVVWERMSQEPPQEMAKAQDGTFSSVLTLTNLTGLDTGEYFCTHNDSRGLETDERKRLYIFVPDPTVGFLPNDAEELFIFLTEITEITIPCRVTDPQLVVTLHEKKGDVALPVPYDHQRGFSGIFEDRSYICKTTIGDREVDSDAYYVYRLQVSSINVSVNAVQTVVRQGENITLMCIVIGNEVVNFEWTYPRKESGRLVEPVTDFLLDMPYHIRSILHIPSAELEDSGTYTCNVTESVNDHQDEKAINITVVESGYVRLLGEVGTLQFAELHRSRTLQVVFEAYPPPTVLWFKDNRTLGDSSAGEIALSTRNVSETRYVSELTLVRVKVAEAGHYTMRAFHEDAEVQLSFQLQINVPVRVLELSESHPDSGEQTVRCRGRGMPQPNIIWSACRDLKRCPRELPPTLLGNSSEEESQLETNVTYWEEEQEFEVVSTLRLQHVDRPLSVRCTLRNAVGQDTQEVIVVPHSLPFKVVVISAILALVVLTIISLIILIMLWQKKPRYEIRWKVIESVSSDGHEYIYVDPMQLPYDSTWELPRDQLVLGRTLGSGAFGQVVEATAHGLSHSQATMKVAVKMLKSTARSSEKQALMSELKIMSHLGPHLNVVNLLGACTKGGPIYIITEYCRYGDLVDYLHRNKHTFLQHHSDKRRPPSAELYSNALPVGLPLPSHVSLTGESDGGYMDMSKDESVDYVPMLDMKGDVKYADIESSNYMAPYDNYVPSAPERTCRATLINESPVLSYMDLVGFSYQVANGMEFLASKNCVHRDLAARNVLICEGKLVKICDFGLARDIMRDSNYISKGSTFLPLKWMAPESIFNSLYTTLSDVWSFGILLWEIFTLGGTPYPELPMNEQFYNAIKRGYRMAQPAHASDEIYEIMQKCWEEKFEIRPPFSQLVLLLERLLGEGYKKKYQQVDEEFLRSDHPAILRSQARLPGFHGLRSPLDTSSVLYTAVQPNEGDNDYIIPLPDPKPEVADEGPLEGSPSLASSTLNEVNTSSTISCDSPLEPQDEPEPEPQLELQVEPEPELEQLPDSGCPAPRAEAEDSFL

Where only a bound is given, the exact number is not on record here.

The IC50 is the concentration at which inhibition is half-maximal. In turn, `COc1cc2ncnc(Nc3ccc(Cl)cc3F)c2cc1OC` yielded an IC50 in test [1] of 17.7 µM.

`Nc1nc(Nc2cccc(Br)c2)c2cc(Cc3cccc4ccccc34)[nH]c2n1` yielded an IC50 in test [2] of more than 50 µM.

The values above are taken from ChEMBL document CHEMBL1150356, “Design, synthesis and biological evaluation of substituted pyrrolo[2,3-d]pyrimidines as multiple receptor tyrosine kinase inhibitors and antiangiogenic agents” (Bioorg Med Chem, 2008).
